Source: article PMC12207590, “Substrate Specificity of the Organic Cation Transporters MATE1 and MATE2K and Functional Overlap with OCT1 and OCT2” (Journal of Medicinal Chemistry, 2025)

Key:
[1] = target: T1, MATE1 (Homo sapiens, UniProt Q96FL8); assay: Uptake ratio in MATE1-overexpressing HEK293 cells vs empty vector ([…], 1 min, HPLC-MS/MS)
T1 sequence (Q96FL8 1-570): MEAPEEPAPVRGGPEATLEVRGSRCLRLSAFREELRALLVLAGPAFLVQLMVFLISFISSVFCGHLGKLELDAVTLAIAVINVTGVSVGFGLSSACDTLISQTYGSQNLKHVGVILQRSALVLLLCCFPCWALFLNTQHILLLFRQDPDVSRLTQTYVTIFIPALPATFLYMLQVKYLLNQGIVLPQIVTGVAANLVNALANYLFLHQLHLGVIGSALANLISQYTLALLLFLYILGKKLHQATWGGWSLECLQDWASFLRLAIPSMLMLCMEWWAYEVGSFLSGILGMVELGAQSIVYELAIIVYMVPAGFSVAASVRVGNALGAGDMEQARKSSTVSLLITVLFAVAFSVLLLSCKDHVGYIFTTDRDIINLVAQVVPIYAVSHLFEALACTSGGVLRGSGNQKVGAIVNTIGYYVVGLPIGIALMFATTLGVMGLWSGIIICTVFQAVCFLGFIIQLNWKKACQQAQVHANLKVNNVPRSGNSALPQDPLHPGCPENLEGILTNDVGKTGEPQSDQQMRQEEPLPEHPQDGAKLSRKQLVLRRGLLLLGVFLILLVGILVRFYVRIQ

[2] = target: T2, MATE2K (Homo sapiens, UniProt Q86VL8); assay: Uptake ratio in MATE2K-overexpressing HEK293 cells vs empty vector ([…], 1 min, HPLC-MS/MS)
T2 sequence (Q86VL8 1-566 isoform Q86VL8-3): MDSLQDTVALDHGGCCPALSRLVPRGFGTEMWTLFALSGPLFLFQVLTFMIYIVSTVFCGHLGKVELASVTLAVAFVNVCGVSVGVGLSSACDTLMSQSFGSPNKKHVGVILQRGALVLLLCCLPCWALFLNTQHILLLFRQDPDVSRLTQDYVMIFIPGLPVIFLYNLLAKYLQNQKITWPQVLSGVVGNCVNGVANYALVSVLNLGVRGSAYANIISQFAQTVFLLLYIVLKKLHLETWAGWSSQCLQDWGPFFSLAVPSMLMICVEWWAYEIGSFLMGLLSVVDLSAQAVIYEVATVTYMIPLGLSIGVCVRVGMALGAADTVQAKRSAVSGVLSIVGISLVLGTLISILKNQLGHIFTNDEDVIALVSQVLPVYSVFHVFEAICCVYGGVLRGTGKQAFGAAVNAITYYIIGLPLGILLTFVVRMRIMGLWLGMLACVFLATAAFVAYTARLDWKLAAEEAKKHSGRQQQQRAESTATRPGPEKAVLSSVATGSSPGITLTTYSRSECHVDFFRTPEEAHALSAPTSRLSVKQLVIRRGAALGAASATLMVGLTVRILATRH

[3] = system: MATE1, MATE2K, OCT1, OCT2; assay: Substrate specificity and overlap among the four transporters (ratio cutoff 2); assay type: cell-based, human; conditions: transport ratio cutoff of 2
[4] = in vivo; cited from earlier work

Molecule | MATE1 ratio [1] | MATE2K ratio [2] | also measured
COc1ccc2c(c1)[C@@]13CCCC[C@H]1[C@@H](C2)NCC3 [3-Methoxymorphinan] | 1.14 | 1.19 | MATE1 (uptake ratio) [1]: 1.14; MATE2 (uptake ratio) [2]: 1.19
O=C(O)Cc1ccccc1Nc1c(Cl)cccc1Cl [Diclofenac] | 1.00 | 0.73 | 
O=P1(N(CCCl)CCCl)NCCCO1 (centres unmarked) [Cyclophosphamide] | 1.07 | 1.15 | 
CNC1(c2ccccc2Cl)CCCCC1=O (centres unmarked) [Ketamine] | 1.27 | 1.12 | 
COc1ccc2c3c1O[C@H]1C(=O)CC[C@@]4(O)[C@@H](C2)N(C)CC[C@]314 [Oxycodone] | 1.09 | 1.21 | 
CC[C@@H](c1cccc(O)c1)[C@@H](C)CN(C)C [Tapentadol] |  |  | MATE1 [1]: 1.18; MATE2 [2]: 1.1
CC[C@@H](CO)NC(=O)[C@@H]1C=C2c3cccc4c3c(cn4C)C[C@H]2N(C)C1 [Methysergide] | 1.06 | 1.20 | 
N#CC(CCN1CCC(C(N)=O)(N2CCCCC2)CC1)(c1ccccc1)c1ccccc1 [Piritramide] | 1.25 | 1.17 | 
Minoxidil | 1.56 | 1.54 | Substrate specificity among MATE1, MATE2K, OCT1, OCT2 [3]: OCT2 only
COc1cc2nc(N3CCN(C(=O)C4CCCO4)CC3)nc(N)c2cc1OC (centres unmarked) [Terazosin] |  |  | MATE1 [1]: 1.17; MATE2 [2]: 1.28
N=C(N)NC(=O)c1nc(Cl)c(N)nc1N [Amiloride] | 11.06 | 6.80 | MATE1 (uptake ratio) [1]: 11.06; MATE1 ratio in this study [1]: 11.06; MATE2 (uptake ratio) [2]: 6.8; MATE2K ratio in this study [2]: 6.80
COCCCN1CCC(NC(=O)c2cc(Cl)c(N)c3c2OCC3)CC1 [Prucalopride] |  |  | MATE2 [2]: 1.07
COC(=O)[C@H]1[C@@H](OC(=O)c2ccccc2)C[C@@H]2CC[C@H]1N2C [Cocaine] | 1.34 | 1.60 | MATE1 (uptake ratio) [1]: 1.34; MATE2 (uptake ratio) [2]: 1.6
Nc1ccncc1 [Fampridine (4-aminopyridine), 4-aminopyridine] | 1.94 | 1.23 | 
CC(C)C[C@H]1C(=O)N2CCC[C@H]2[C@]2(O)O[C@](NC(=O)[C@@H]3C=C4c5cccc6[nH]c(Br)c(c56)C[C@H]4N(C)C3)(C(C)C)C(=O)N12 [Bromocriptine] | 1.58 | 1.48 | MATE1 (uptake ratio) [1]: 1.58; MATE2 (uptake ratio) [2]: 1.48
CCN(CC)CCNC(=O)c1cc(Cl)c(N)cc1OC [Metoclopramide] | 1.08 | 1.26 | 
CCN(C)C(=O)Oc1cccc([C@H](C)N(C)C)c1 [Rivastigmine] |  |  | MATE1 [1]: 0.98
COc1ccc2[nH]cc(CCN)c2c1 [5-Methoxytryptamine] | 3.49 | 1.66 | MATE1 (uptake ratio) [1]: 3.49; MATE2 (uptake ratio) [2]: 1.66
CCOC(=O)C1(c2ccccc2)CCN(C)CC1 [Pethidine] | 1.80 | 2.82 | 
N#C[C@@H]1CCCN1C(=O)CNC12CC3CC(CC(O)(C3)C1)C2 [Vildagliptin] |  |  | MATE2 [2]: 1.06

Molecule | MATE1 ratio [1] | MATE2K ratio [2] | also measured
COc1cc(CCN)cc(OC)c1OC [Mescaline] | 4.00 | 1.56 | 
CC(C)(N)Cc1ccccc1 [Phentermine] | 1.20 | 1.76 | 
CN[C@@H](C)Cc1ccccc1 [Metamfetamine] | 1.53 | 1.97 | MATE1 ratio in this study [1]: 1.53; MATE2K ratio in this study [2]: 1.97
CCN1CCC[C@H]1CNC(=O)c1cc(S(N)(=O)=O)ccc1OC [Sulpiride (S)] |  |  | MATE1 [1]: 22.45
C[C@H](N)C(=O)c1ccccc1 [Cathinone] | 1.14 | 1.31 | MATE1 (uptake ratio) [1]: 1.14; MATE2 (uptake ratio) [2]: 1.31
CN1C[C@H](C(=O)N[C@]2(C)O[C@@]3(O)[C@@H]4CCCN4C(=O)[C@H](Cc4ccccc4)N3C2=O)C[C@@H]2c3cccc4[nH]cc(c34)C[C@H]21 [Dihydroergotamine] | 1.19 | 1.19 | 
NS(=O)(=O)c1cc2c(cc1Cl)NCNS2(=O)=O [Hydrochlorothiazide] | 2.15 | 2.50 | 
CCN1CCCC1CNC(=O)c1cc(S(N)(=O)=O)ccc1OC (centres unmarked) [Sulpiride] | above 2 |  | MATE1 [1]: 23.85; MATE1 ratio in this study [1]: 23.85; MATE2 [2]: 21.71; MATE2K ratio in this study [2]: 21.71
CCCC(C)C1(CC)C(=O)NC(=O)NC1=O (centres unmarked) [Pentobarbital] | 1.14 | 1.17 | 
COC(=O)C(c1ccccc1)C1CCCCN1 (centres unmarked) [Methylphenidate] | 1.16 | 1.40 | 
COc1ccc2c(c1)[C@]13CCCC[C@@H]1[C@H](C2)N(C)CC3 [Dextromethorphan] | 1.04 | 1.14 | 
Maraviroc | 1.58 |  | 
CCCN(CCC)CCc1cccc2c1CC(=O)N2 [Ropinirole] | 1.43 | 1.49 | 
NCC1(CC(=O)O)CCCCC1 [Gabapentin] | 0.75 | 1.04 | 
CN(C)CCC=C1c2ccccc2CCc2ccccc21 [Amitriptyline] | 1.13 | 1.03 | MATE1 (uptake ratio) [1]: 1.13; MATE2 (uptake ratio) [2]: 1.03
CNCC(O)c1ccc(O)c(OC)c1 (centres unmarked) [Metanephrine] | 4.97 | 1.71 | 
C[N+]1(C)CCC(OC(=O)C(O)(c2ccccc2)C2CCCC2)C1.[Br-] (centres unmarked) [Glycopyrrolate] |  |  | eliminated unchanged via the kidneys [4]: more than 70%
Clc1cccc(N2CCNCC2)c1 [1-(3-Chlorophenyl)piperazine] | 1.27 | 0.89 | MATE1 (uptake ratio) [1]: 1.27; MATE2 (uptake ratio) [2]: 0.89
CCOc1ccccc1OC(c1ccccc1)C1CNCCO1 (centres unmarked) [Reboxetine] | 0.95 | 0.94 | MATE1 [1]: 0.95; MATE2 [2]: 0.94
